# Measured values as given in publication PMC11575396, “Activity and cryo-EM structure of the polymerase domain of the human norovirus ProPol precursor” (Journal of Virology, 2024).
# Where a name gives a salt, the structure may show the parent alone.
# Target: GII Pol (Norovirus Hu/GII.4/Sydney/NSW0514/2012/AU, UniProt K4L8Z7)
# Assay type: biochemical
smiles,measurement,value
"Cc1nc(/N=N/c2cc(S(=O)(=O)O)c3cc([N+](=O)[O-])cc(S(=O)(=O)O)c3c2)c(COP(=O)(O)O)c(C=O)c1O [PPNDS, pyridoxal‐5′‐phosphate‐6‐(2′‐naphthylazo‐6′‐nitro‐4′,8′‐disulfonate) tetrasodium salt]",fold more effective against GII Pol than GII ProPol,~ 7 fold
